Several values for one entry are separate records, joined by “and”; a condition that tells them apart may be missing. Equal values may be shown once. The entries are a selection whose mix differs from that of the whole data set. Results filed as inconclusive are left out. Activity calls are given as the source filed them. Unless noted, the call rests on the fitted dose curve; in most records, active means well fitted curve in the direction sought with a large enough effect; inconclusive means small, poorly fitted or top-dose-only effect, or another doubt; inactive means no such curve, though single readings can be large; an effect the other way counts as inactive or inconclusive.
Key:
CRL-7250 [1] = assay: Cytotoxic Profiling of Annotated Libraries Using Quantitative High-Throughput Screening (AID 1296008); conditions: Five cell lines viability, CellTiter-Glo ATP luminescence, 48-72 h; hits give low values; further: nearly all actives have a fitted effect of over 60% in size; on max response: on the % scale 0 is the no-effect control and ±100 the full control effect
Outline: (§1)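 Cells exposed to compounds for 48 or 72 hr at 37 degrees Celsius. Viability read as ATP-coupled luminescence with CellTiter-Glo after 10 min at room temperature.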

HaCat [2] = assay: as above; conditions: Five cell lines viability, CellTiter-Glo ATP luminescence, 48-72 h; hits give low values
Outline: as §1

KB-3-1 = assay: as above; conditions: Five cell lines viability, CellTiter-Glo ATP luminescence, 48-72 h, hits give low values
Outline: as §1

NIH3T3 = assay: as above; conditions: Five cell lines viability, CellTiter-Glo ATP luminescence, 48-72 h; hits give low values
Outline: as §1

[3] = Quantitative High-Throughput drug screen in 47 multiple myeloma cell lines against the NCATS MIPE library collection: OCIMY1_PLB cell viability assay (AID 1918979); conditions: OCI-MY1 myeloma viability, CellTiter-Glo ATP, 48 h; at 45.8 µM (top of the series);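 further: 100% = DMSO-only wells and 0% = cell-free media-only wells; nearly all actives have a fitted effect of over 35% in size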
Outline: (§2)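 Cells were exposed to library compounds for 48 hours, after which ATP was measured by CellTiter-Glo. Signal was taken as median relative luminescence units.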

[4] = Quantitative High-Throughput drug screen in 47 multiple myeloma cell lines against the NCATS MIPE library collection: MM1R_ATCC cell viability assay (AID 1918981); conditions: MM1R multiple myeloma cells, CellTiter-Glo viability, 48 h; further: potency means the concentration at half of the fitted maximal effect; nearly all actives have a fitted effect of over 35% in size
Outline: as §2

[5] = Quantitative High-Throughput drug screen in 47 multiple myeloma cell lines against the NCATS MIPE library collection: LP1_DSMZ cell viability assay (AID 1918982); conditions: LP1 myeloma viability, CellTiter-Glo ATP luminescence, 48 h; at 45.8 µM (top of the series); further: nearly all actives have a fitted effect of over 35% in size
Outline: as §2

[6] = Quantitative High-Throughput drug screen in 47 multiple myeloma cell lines against the NCATS MIPE library collection: L363_DSMZ cell viability assay (AID 1918984); conditions: L363 myeloma viability, CellTiter-Glo ATP luminescence, 48 h; at 45.8 µM (top of the series); further: nearly all actives have a fitted effect of over 40% in size
Outline: as §2

[7] = Quantitative High-Throughput drug screen in 47 multiple myeloma cell lines against the NCATS MIPE library collection: OCIMY7_PLB cell viability assay (AID 1918987); conditions: OCI-MY7 myeloma viability, CellTiter-Glo ATP, 48 h; further: potency means the concentration at half of the fitted maximal effect; nearly all actives have a fitted effect of over 65% in size
Outline: as §2

[8] = Quantitative High-Throughput drug screen in 47 multiple myeloma cell lines against the NCATS MIPE library collection: OCIMY5_PLB cell viability assay (AID 1918988); conditions: OCI-MY5 myeloma viability, ATP luminescence, 48 h; further: potency means the concentration at half of the fitted maximal effect; nearly all actives have a fitted effect of over 65% in size
Outline: as §2

[9] = Quantitative High-Throughput drug screen in 47 multiple myeloma cell lines against the NCATS MIPE library collection: VP6_DJ cell viability assay (AID 1919867); conditions: ATP luminescence, 48 h; further: potency means the concentration at half of the fitted maximal effect; nearly all actives have a fitted effect of over 40% in size
Outline: as §2

[10] = Quantitative High-Throughput drug screen in 47 multiple myeloma cell lines against the NCATS MIPE library collection: PE2_PLB cell viability assay (AID 1919869); conditions: PE2_PLB myeloma cells viability, ATP luminescence, 48 h; further: potency means the concentration at half of the fitted maximal effect; nearly all actives have a fitted effect of over 35% in size
Outline: as §2

[11] = qHTS drug screen for cell cycle checkpoint inhibitors in PARPi-resistant BRCA-mutant ovarian cancer cell lines. (AID 1963452; calls by dose curve); conditions: PEO1/OlaR viability, CellTiter-Glo luminescence, 96 h; hits give low values
Outline: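 PEO1, PEO4 and PEO1/OlaR ovarian cancer cells, 600 per well, exposed 96 h at 37C to a dilution series. Viability read by CellTiter-Glo luminescence, normalized to DMSO and empty wells; activity summarized as Z-AUC.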

HEK293 = assay: Cytotoxic Profiling of Annotated Libraries Using Quantitative High-Throughput Screening (AID 1296008); conditions: Five cell lines viability, CellTiter-Glo ATP luminescence, 48-72 h, hits give low values; further: nearly all actives have a fitted effect of over 60% in size; on max response: on the % scale 0 is the no-effect control and ±100 the full control effect
Outline: as §1

CRL-7250 [12] = assay: qHTS assay to identify novel small-molecules to repurpose for Merkel cell carcinoma treatment (AID 1296009); conditions: MCC and control cell lines, CellTiter-Glo viability, 72 h; at 92 µM (top of the series); further: nearly all actives have a fitted effect of over 60% in size; on activity change, negative = cytotoxicity: on the % scale 0 is the no-effect control and ±100 the full control effect
Outline: (§3)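 Dose-response viability screen; 72 hr exposure at 37 degree celsius; CellTiter-Glo added, 10 min room temperature, luminescence read; RLUs scaled between no-cell and DMSO wells.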

HACAT [13] = assay: as above; conditions: MCC and control cell lines, CellTiter-Glo viability, 72 h; at 92 µM (top of the series)
Outline: as §3

MCC-13 = assay: as above; conditions: MCC and control cell lines, CellTiter-Glo viability, 72 h; at 92.7 µM (top of the series)
Outline: as §3

MCC-26 = assay: as above; conditions: MCC and control cell lines, CellTiter-Glo viability, 72 h; at 92.7 µM (top of the series)
Outline: as §3

MKL-1 = assay: as above; conditions: MCC and control cell lines, CellTiter-Glo viability, 72 h; at 92.7 µM (top of the series)
Outline: as §3

MKL-2 = assay: as above; conditions: MCC and control cell lines, CellTiter-Glo viability, 72 h; at 92.7 µM (top of the series)
Outline: as §3

With `CCC(=O)N(c1ccccc1)C1(COC)CCN(CCc2cccs2)CC1` the max response (CRL-7250 [1]) was inactive: -2.77%, the max response (HaCat [2]) was inactive: -5.63% and the max response (KB-3-1) was inactive: -11.9%. For the same molecule, the max response (NIH3T3) was inactive: -13.8%.

For `CN(CCCl)CCCl`, the viability [3] was inactive: 118%, the Potency [4] was active: 13.2 µM and the viability (% of control) [5] was inactive: 122%. The viability (% of control) [6] was inactive: 102%, the Potency [7] was active: 5.9 µM and the Potency [8] was active: 23.5 µM. For the same molecule, the Potency [9] was active: 9.35 µM, the Potency [10] was active: 11.8 µM and the Z-AUC [11] was inactive: 0.0825. The max response (CRL-7250 [1]) was inactive: -2.77% and inactive: 0.904%, the max response (HEK293) was inactive: -91.4% and inactive: -9.09% and the outcome (HaCat [2]) was “inactive”. For the same molecule, the max response (KB-3-1) was inactive: 41.1% and inactive: 3.51%, the max response (NIH3T3) was inactive: -45.1% and the outcome (NIH3T3) was “inactive”.

With `CCC(=O)N(c1ccccc1)C1CCN(CCc2ccccc2)CC1` the max response (KB-3-1) was inactive: 8.06%.

For `CCC(=O)N(c1ccccc1)C1(COC)CCN(CCn2nnn(CC)c2=O)CC1`, the outcome (CRL-7250 [1]) was “inactive”, the max response (HEK293) was inactive: -22.9% and the outcome (HaCat [2]) was “inactive”. The max response (KB-3-1) was inactive: -0.781%, the max response (NIH3T3) was inactive: -9.68% and the outcome (CRL-7250 [12]) was “inactive”. For the same molecule, the outcome (HACAT [13]) was “inactive”, the activity change, negative = cytotoxicity (MCC-13) was inactive: -1.89% and the activity change, negative = cytotoxicity (MCC-26) was inactive: -14.9%. The activity change, negative = cytotoxicity (MKL-1) was inactive: -20.3% and the activity change, negative = cytotoxicity (MKL-2) was inactive: -17.5%.
